# AlphaSeq binding of Ab-14 light chain variants to a spike HR2 peptide

Values reported by Li et al. 2023, doi:10.1038/s41467-023-39022-2 (FLAb copy).

The target is the same throughout: PDVDLGDISGINAS, from the HR2 region of SARS-CoV-2 spike.

Parent: Ab-14, a human scFv built as VH, three GGGGS repeats, VL. Only the CDRs of the light chain vary.
VH: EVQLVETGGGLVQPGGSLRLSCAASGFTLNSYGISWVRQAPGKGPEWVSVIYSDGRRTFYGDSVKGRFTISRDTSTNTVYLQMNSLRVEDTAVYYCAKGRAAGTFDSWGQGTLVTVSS
VL: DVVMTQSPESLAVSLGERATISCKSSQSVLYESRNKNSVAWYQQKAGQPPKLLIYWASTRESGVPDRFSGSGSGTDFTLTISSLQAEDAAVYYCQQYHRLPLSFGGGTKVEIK

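Phage display of a naive human antibody library on the peptide gave the parent. These sequences belong to a second round, designed from the earlier measurements on random variants of the parent. Group labels follow the data file (Ctrl: baseline library sampled from a position-specific scoring matrix, with some repeated check sequences; GPLM: also part of the Gaussian process libraries; HC: hill climbing; a sequence that several methods proposed may carry one label only). Affinity was read by AlphaSeq, a pooled yeast mating assay with surface-displayed partners. After mating in shaken culture at 30 °C for 16 h, diploids were selected and their barcode pairs sequenced. Each replicate has its own calibration line, from reference interactions of the BCL2 family. Each pool was mated in six replicate cultures.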

Variants are written as CDR1, CDR2 and CDR3 of the light chain (limits as in the source). Parent: KSSQSVLYESRNKNSVA, WASTRES, QQYHRLPLS. The read-out is the apparent dissociation constant on a log10 scale (nM): the lower, the stronger. Replicates are averaged; those with no signal do not enter the mean. Where no diploid with the target was found in that replicate, the entry reads "ND": below detection, most likely a poor binder, though not proof of it. Nonspecific signal, from three strains lacking the peptide, appeared in 4% of pairings of all light chain designs, centred on 2.64 (5% of these signals below 1.59); values are not corrected for it. For each scFv, signals with the empty controls are counted beside the result, with their mean in brackets.

| # | CDR-L1 | CDR-L2 | CDR-L3 | group | replicates, log10 nM | log10 Kd (nM), mean | signal with controls |
|---|---|---|---|---|---|---|---|
| 1 | KSSQSVLYESMNKNSVA | EASTREC | QQYVRLPLS | Ctrl | 0.36 0.47 0.37 0.13 0.29 0.85 | 0.41 | 1/18 (2.22) |
| 2 | KSSQSVLYESLNKNSVA | GASTRES | QQYHRLPLS | Ctrl | 0.38 0.12 0.22 -0.02 0.28 0.28 | 0.21 | 4/18 (3.39) |
| 3 | KSSQSKMNESRNKNSVA | WASTRES | QQYHRLPLA | Ctrl | ND ND ND ND ND 2.26 | 2.26 | 1/18 (1.74) |
| 4 | KSSQSVLYESRNKNIVA | DASTREN | QQYHRDPLS | Ctrl | ND ND ND ND ND ND | ND | 0/18 |
| 5 | KSSKSVLYESENKNSVA | WASTRES | QQYHRLPLS | Ctrl | 2.85 2.10 ND 2.19 2.03 2.03 | 2.24 | 1/18 (2.78) |
| 6 | KSQQSVLYESRNKNSVA | NESTRES | QQYHRLPLS | Ctrl | 0.55 0.44 0.30 0.30 0.10 0.37 | 0.34 | 1/18 (2.95) |
| 7 | DSSQSHLYEGRNKNSVA | KASTRES | QQYHRLPLS | Ctrl | 0.95 1.31 1.74 0.86 0.93 1.37 | 1.19 | 2/18 (2.59) |
| 8 | KWRQSVLYESRNKISVA | WASTRES | QQYVRLPLS | Ctrl | ND ND ND ND ND ND | ND | 0/18 |
| 9 | KVSQSVLGESRNKNSVA | WANTRES | QQYQRLPLS | Ctrl | 0.45 0.54 0.27 0.34 0.47 0.80 | 0.48 | 2/18 (3.20) |
| 10 | KSSQSVLYTSRNQNSVA | FASTRES | QQYHRLPLS | Ctrl | 1.01 1.66 1.29 1.37 2.44 1.91 | 1.61 | 0/18 |
| 11 | KMSQSILYESRNKNSVA | WASTRES | QQYHRLPLS | Ctrl | 0.86 0.88 1.72 0.32 1.18 2.16 | 1.19 | 0/18 |
| 12 | KSDQSVLYDRRNKNSMA | WASTRES | QQYHRLPLS | Ctrl | ND 1.82 ND ND 1.74 ND | 1.78 | 1/18 (1.80) |
| 13 | KSSQGVLYESRNKNSVA | EASTRES | QQYHRLPNS | Ctrl | 1.40 ND ND ND ND ND | 1.40 | 0/18 |
| 14 | KSDQSVLYESRNKNNIA | WASKRES | QTYHRLPLS | Ctrl | 2.61 1.77 2.36 2.06 2.64 1.03 | 2.08 | 1/18 (3.47) |
| 15 | KCSQSVLNESRYKNSVA | WASTRES | GQYKRLPLS | Ctrl | ND ND ND ND ND ND | ND | 0/18 |
| 16 | KSSQSQLYEGRNKNSVA | WASTRES | QQYHRLPLS | Ctrl | 1.57 2.46 1.41 ND 1.39 1.73 | 1.71 | 0/18 |
| 17 | KSSQSELYESRNKNSVA | WASTREA | QQYKRLPLS | Ctrl | ND ND ND ND ND ND | ND | 0/18 |
| 18 | KSSQSDLYEDVNKNSVA | WASTRES | QQYHRLPLS | Ctrl | 1.23 ND 1.38 1.85 ND ND | 1.49 | 0/18 |
| 19 | KSSQSVLTESRNKNSVA | WASTRES | QQYHRLPLE | Ctrl | 2.59 2.75 ND 2.67 2.05 2.74 | 2.56 | 2/18 (2.06) |
| 20 | KSSQSVLFESRNKNSVA | NASTRES | QQYHRLPLS | Ctrl+GPLM_HC | 0.28 0.16 0.08 0.10 0.38 0.15; 1.68 0.85 0.55 -0.03 1.21 1.54 | 0.58 | 0/36 |
| 21 | KSSQSVLYEDRNKNSVA | WASTRES | QQCHRLPLS | Ctrl | ND ND ND ND ND ND | ND | 2/18 (2.20) |
| 22 | VSSQSVLYESRNKNSVA | WGTTRES | QQYHRLPLS | Ctrl | 0.87 1.42 1.08 1.05 1.84 1.58 | 1.31 | 0/18 |
| 23 | KISQSDLYEEFNKNSVA | EASTRES | QQYHRLPLS | Ctrl | 0.42 0.38 0.43 0.21 -0.05 0.19 | 0.26 | 1/18 (2.25) |
| 24 | KSSQSVLYESRNKYAVA | WASTRES | QQYHRLPLS | Ctrl | ND ND ND ND ND ND | ND | 0/18 |
| 25 | KSSQSVLYESRNKNSVA | WRSTRES | QQLHRLPLS | Ctrl | ND ND ND ND ND ND | ND | 1/18 (2.20) |
| 26 | KSSESVWYESRSKNSVA | WASTRES | QQYHRLPLS | Ctrl | 2.19 ND ND ND 2.26 ND | 2.22 | 0/18 |
| 27 | KMSQSVLYFSRNKNSVA | WASTRES | QQYHRLPLS | Ctrl | ND 0.67 1.32 0.08 0.28 0.63 | 0.59 | 0/18 |
| 28 | HLSQSVLMESRNKNSVA | WASTREQ | SQYERLPLS | Ctrl | 1.32 1.56 1.50 1.48 1.42 2.05 | 1.55 | 0/18 |
| 29 | KFSQSVLYESRNKNSVA | NRSTRES | QQYHRFPLS | Ctrl | 0.37 0.46 0.46 0.21 0.46 0.33 | 0.38 | 4/18 (1.83) |
| 30 | KSSQSVYYEKRNKNSVA | WASTRES | QQYHRLPLS | Ctrl | ND ND ND ND ND ND | ND | 0/18 |
| 31 | KSMQSVLYESRNKNSVA | EASTRES | QQYHILPLN | Ctrl | 1.40 1.57 1.74 2.77 1.67 1.73 | 1.81 | 0/18 |
| 32 | KSSQSVLMESRNKNSVA | WASTRES | QQYHRIPFS | Ctrl | ND ND 4.53 3.41 3.51 ND | 3.81 | 0/18 |
| 33 | SSSQSVLYESRNKNSVA | WGSTRES | QQYHRLPLS | Ctrl | 2.51 1.73 3.39 2.30 1.53 1.28 | 2.12 | 0/18 |
| 34 | KSSQSWLYESRNKNSVA | DASTRES | QQYHRLPLS | Ctrl | 1.08 1.08 0.40 0.56 0.88 0.79 | 0.80 | 0/18 |
| 35 | KSSPSVLYESDNKNSVA | WASTRES | QQYHRLALS | Ctrl | ND ND ND ND ND ND | ND | 0/18 |
| 36 | KSSQSILYESRNKNSVA | WASTRVS | QQYKRLPLS | Ctrl | 1.80 1.39 2.07 1.71 1.00 1.85 | 1.64 | 2/18 (1.95) |

Again, the first 2 entries without any signal:

CDR-L1,CDR-L2,CDR-L3,group,"replicates, log10 nM","log10 Kd (nM), mean",signal with controls
KSSQSVLYESRNKNIVA,DASTREN,QQYHRDPLS,Ctrl,ND ND ND ND ND ND,ND,0/18
KWRQSVLYESRNKISVA,WASTRES,QQYVRLPLS,Ctrl,ND ND ND ND ND ND,ND,0/18

The range of this assay differs from that of the first round, and the authors advise against merging the two. A sequence that the file lists under several names has all its replicates listed entry by entry, parted by semicolons. In the paper, a design with two or fewer of six values counts as a poor binder.